Assay results published in patent publication US10662235B2, “Cysteine engineered fibronectin type III domain binding molecules” (Janssen Biotech, Inc., priority 2016, dated 2020).

Tests used:
[1] = Body weight loss / tolerability in H292-HGF xenograft study; conditions: treatment and 2 weeks observation
[2] = test system: H292-HGF human lung cancer xenograft; experiment: Efficacy of bispecific molecule and other inhibitors in H292-HGF xenograft model (tumor volume, T/C, T-C); format: in vivo, SCID/Beige mice

Substance: Cetuximab: anti-EGFR antibody
- toxicity / body weight loss / tolerability [1]: well tolerated
- antitumor activity ([2]; H292-HGF xenograft): significant antitumor activities
- tumor growth delay at tumor size of 1,000 mm^3 compared with the vehicle group ([2]; mouse, in vivo): 17 days
